# Test results published in publication PMC6930675, “Discovery and Characterisation of Dual Inhibitors of Tryptophan 2,3-Dioxygenase (TDO2) and Indoleamine 2,3-Dioxygenase 1 (IDO1) Using Virtual Screening” (Molecules, 2019).
# Sequences of proteins named here, by UniProt entry; tags and fusion partners are left off. A change or cut given only in a name is not applied to a line headed by its entry.
# UniProt P48775: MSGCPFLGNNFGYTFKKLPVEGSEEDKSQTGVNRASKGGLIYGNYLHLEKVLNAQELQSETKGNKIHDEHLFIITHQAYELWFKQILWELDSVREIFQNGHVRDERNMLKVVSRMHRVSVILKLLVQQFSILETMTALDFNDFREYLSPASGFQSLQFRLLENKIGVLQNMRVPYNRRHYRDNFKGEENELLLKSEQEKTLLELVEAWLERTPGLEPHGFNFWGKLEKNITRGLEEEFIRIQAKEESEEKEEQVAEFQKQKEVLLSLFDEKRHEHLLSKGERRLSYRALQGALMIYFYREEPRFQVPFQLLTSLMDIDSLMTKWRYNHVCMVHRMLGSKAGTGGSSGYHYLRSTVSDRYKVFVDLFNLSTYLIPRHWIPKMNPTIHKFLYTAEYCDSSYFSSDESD
# Biological target: T1, TDO2 (A172 cells) (Homo sapiens, UniProt P48775)
# T1 construct: identify cell lines endogenously expressing only IDO1, only TDO2, and both enzymes simultaneously; endogenous in cells; host or cells: A172 glioblastoma cell line
# Experiment: Cell based kynurenine assay in A172 glioblastoma line (TDO2 expressor)
# Conditions: 18 h, read-out: IC50, inhibition of kynurenine secretion
# Procedure: Breast cancer cell lines MCF7, MDA-MB-231, BT549, Hs578T; ovarian cell line SKOV3; glioblastoma cell line A172 and lung cancer cell line H460 were grown in α-MEMGibco, Grand Island, NY, USA; ThermoFisher catalogue number 12000022) containing 5% foetal calf serum (Moregate Biotech, Hamilton, New Zealand), insulin/transferrin/selenium supplement (Roche, Ref-11074547001), added according to the manufacturer’s instructions, as well as penicillin/streptomycin (100 U/mL and 100 μg/mL, respectively). The amount of kynurenine produced by the cells was measured as described previously. […] After spinning the plates for 20 min at 2500 g, the supernatants were mixed at a 1:1 ratio with 4-(dimethylamino)benzaldehyde (20 mg/mL in acetic acid; Sigma) and the absorbance was read at 480 nm on an EnSpire 2300 Multimode Plate Reader (Perkin-Elmer, Singapore, Singapore). […] After 1 h of incubation at 37 °C, the absorbance was measured at 440 nm. WST-1 is reduced on the outer membrane of viable cells to a soluble formazan by reducing equivalents such as NAD(P)H. The absorbance measured at 440 nm indicates the number of metabolically active cells in the culture and represents a surrogate marker of cell viability. […]
smiles,measurement,value
Fc1ccc2c(/C=C\c3cccnc3)c[nH]c2c1 [680C91],IC50,380 nM
